Data published in patent US9688695B2, “Imidazothiadiazole and imidazopyrazine derivatives as protease activated receptor 4 (PAR4) inhibitors for treating platelet aggregation” (BRISTOL-MYERS SQUIBB COMPANY, priority 2012, dated 2017).
pEC50, pIC50: −log10 of the molar value.

By UniProt entry, the sequences of proteins in these tests, tags left out. Residues count along the entry.
UniProt Q96RI0, 18-385: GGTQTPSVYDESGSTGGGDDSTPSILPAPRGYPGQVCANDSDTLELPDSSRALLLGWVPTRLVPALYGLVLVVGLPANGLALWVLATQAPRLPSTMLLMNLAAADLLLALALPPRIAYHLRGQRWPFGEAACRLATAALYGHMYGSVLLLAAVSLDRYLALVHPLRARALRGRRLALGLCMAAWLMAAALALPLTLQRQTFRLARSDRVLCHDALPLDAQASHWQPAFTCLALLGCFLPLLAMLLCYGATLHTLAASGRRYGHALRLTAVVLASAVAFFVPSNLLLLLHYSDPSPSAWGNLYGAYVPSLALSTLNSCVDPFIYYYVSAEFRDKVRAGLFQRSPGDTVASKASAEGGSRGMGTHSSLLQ

How the values were obtained:
PAR4 [1] = biological target: T1, PAR4 (Homo sapiens (Human), UniProt Q96RI0); assay: FLIPR assay in PAR4-expressing HEK293 cells (PAR4 antagonist activity, calcium mobilization); format: cell-based; settings: H-Ala-Phe(4-F)-Pro-Gly-Trp-Leu-Val-Lys-Asn-Gly-NH2-induced calcium mobilization
Description: The FLIPR assay is an exemplary in vitro assay for measuring the activity of the PAR4 antagonists of the present invention. In this assay, intracellular calcium mobilization is induced in PAR4 expressing cells by a PAR4 agonist and calcium mobilization is monitored. See, e.g., Example A.
HEK293 cells stably expressing PAR4 were generated by a standard method of transfection of human […] cDNA expression vector or by RAGE technology from Athersys Inc. (Cleveland, Ohio) and selected based on PAR4 protein expression of mRNA expression. […] These cells express endogenous PAR1 and can elicit calcium signal upon stimulation with PAR1 agonist peptide.
Counter screens for agonist activity and PAR1 antagonist activity were also performed. Briefly, HEK293 EBNA PAR4 clone 20664.1J cells were plated 24 hrs. prior to experiment in 384 well, Poly-D-Lysine coated, black, clear bottom plates (Greiner Bio-One, Monroe, N.C.). Cells were plated at 20,000 cells/well in […] growth medium and incubated at 37° C. with 5% CO2 overnight. At time of assay, media was replaced with 40 μl 1× Hank's Buffered Saline Solution (HBSS) (with 10 mM HEPES) and 20 μl test compound also diluted in 1×HBSS buffer was added at various concentrations and 0.67% DMSO final concentration on the FDSS for agonist measurement. […]

PAR4 [2] = biological target: T1, PAR4; assay: Gamma thrombin induced platelet aggregation assay (PRP assay); format: cell-based; settings: human platelet rich plasma, 96-well microplate
Description: Platelet aggregation can be monitored in a 96-well microplate aggregation assay format or using standard platelet aggregometer.
The platelet rich plasma was isolated by centrifugation at 170 g for 14 minutes.
The ability of the compounds of the current invention to inhibit platelet aggregation induced by gamma-thrombin was tested in a 96-well microplate aggregation assay format. Briefly, PRP or washed platelet suspension (100 μl) was pre-incubated for 5 minutes at room temperature with varying concentrations of compounds. Aggregation was initiated by ˜10-50 nM gamma thrombin (Haematologic Technologies, Essex Junction, Vt.), which was titrated daily to achieve 80% platelet aggregation. Refludan at 1 U/mL (Berlex, Montville, N.J.) was added to the gamma thrombin sample to prevent PAR1 activation induced by residual alpha-thrombin contamination. The plate was then placed into a 37° C. Molecular Devices (Sunnyvale, Calif.) SPECTRAMAX® Plus Plate Reader. […] The plate also included an untreated control sample which served as ODmax, while buffer containing no platelets was the ODmin. Platelet aggregation was determined by subtracting the ODmax from the ODmin for the 100% aggregation value. […] IC50 values are determined using Excel Fit software.

For COc1cc(OCc2csc(-c3ccc(C(=O)N(C)CC#N)cc3)n2)c2cc(-c3cn4nc(OC)sc4n3)oc2c1 [Example 288], the pEC50 (PAR4 [1]) was 9.44 and the pIC50 (PAR4 [2]) was 9.00.
